The values that follow come from publication PMC10466050, “A comparative study of human and zebrafish glucocorticoid receptor activities of natural and pharmaceutical steroids” (Frontiers in Endocrinology, 2023).

In test [1] the target is T1, hGR (Homo sapiens, UniProt P04150).
T1 sequence (P04150 1-777): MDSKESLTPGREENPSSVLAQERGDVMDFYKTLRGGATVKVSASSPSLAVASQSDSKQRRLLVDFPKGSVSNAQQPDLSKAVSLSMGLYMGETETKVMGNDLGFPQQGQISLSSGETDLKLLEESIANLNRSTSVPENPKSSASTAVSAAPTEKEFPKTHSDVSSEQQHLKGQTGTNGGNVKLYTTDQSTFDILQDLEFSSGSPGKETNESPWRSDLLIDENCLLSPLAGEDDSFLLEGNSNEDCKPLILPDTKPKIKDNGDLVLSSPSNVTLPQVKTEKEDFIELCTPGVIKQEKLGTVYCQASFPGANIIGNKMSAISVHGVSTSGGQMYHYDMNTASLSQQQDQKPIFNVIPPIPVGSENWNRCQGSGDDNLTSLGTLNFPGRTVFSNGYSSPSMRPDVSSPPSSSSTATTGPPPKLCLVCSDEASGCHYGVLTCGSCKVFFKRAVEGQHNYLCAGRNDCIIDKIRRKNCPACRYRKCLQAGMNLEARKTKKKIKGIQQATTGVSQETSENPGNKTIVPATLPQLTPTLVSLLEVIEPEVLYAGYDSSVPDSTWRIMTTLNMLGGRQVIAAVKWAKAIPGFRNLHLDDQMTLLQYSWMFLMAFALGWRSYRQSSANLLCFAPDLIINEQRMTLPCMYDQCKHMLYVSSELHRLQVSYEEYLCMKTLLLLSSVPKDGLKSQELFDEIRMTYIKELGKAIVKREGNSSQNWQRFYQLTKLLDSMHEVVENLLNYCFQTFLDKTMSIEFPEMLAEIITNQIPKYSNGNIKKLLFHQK
The settings on record: HMLN-hGR; with 3 nM dexamethasone; % of maximal luciferase activity induced by 100 nM dexamethasone; at 10^-5M.

Test [2] addresses T1, hGR. Kind of test: cell-based.

As to `CC(=O)[C@@]1(O)CC[C@H]2[C@@H]3CCC4=CC(=O)CC[C@]4(C)[C@H]3CC[C@@]21C` [17α-hydroxyprogesterone], the “% min act (minimal activity)” value in test [1] worked out at 14 ± 4%. Moreover, the IC50 (usually the concentration that inhibits the measured activity by half) in test [2] is 1720 nM.
